The results in this text go back to patent publication US12139488B2, “Pyrido[3,2-d]pyrimidine compounds uses thereof for treating a proliferative disease” (Universite de Montreal, priority 2021, dated 2024).

The subject of the first test is pERK in HCT-116 cells (KRAS G13D). The test is described as follows: Phospho-ERK inhibition (AlphaLISA SureFire Ultra p-ERK 1/2), HCT116. The settings on record: lowest % inhibition value of the IC50 curve, HCT116. As for the experimental part: All cancer cell lines (A375, A101D, A2058, RKO, HT29 SK-MEL 30, IPC298, HepG2, HCT-116, Lovo, SWV620, SW480, NCI-H358, NCI-H2122, Calu-6, NCIH2087, NCIH1755, NCIH1666 and Mewo) were obtained from ATCC and cultured in RPMI-1640 medium (Gibco) supplemented with 5% heat inactivated fetal bovine serum (FBS, Wisent) at 37° C. under 5% CO2. Cells were maintained in T175 flasks (Greiner). They were passaged by removing the culture medium, washing once in 10 mL of room temperature Phosphate Buffered Saline (PBS; Wisent) and incubating at 37° C. with 2 mL of 0.05% Trypsin (Thermo-Fisher). Trypsin was then inactivated by adding complete growth medium and the cells were then replated in a T175 culture dish at the appropriate dilution. All cell lines were routinely tested for mycoplasma contamination. Tissue type and mutational status of each cell line can be found in Table B.
AlphaLISA® SureFire® Ultra™ p-ERK 1/2 (Thr202/Tyr204) analysis was conducted on cells plated in 100 μL of complete RPMI-1640 growth medium in 96-well flat-bottomed transparent dishes (Costar) at a density indicated in Table C. Cells were maintained overnight at 37° C. under 5% CO2 before treatment with compounds' dilution series for one hour. The cell density in cells/cm^2 corresponds to cell number divided by the area of one well of a 96-well plate ([…]).
In a dilution series 100 μL/well of test substance dilution prepared in complete RPMI-1640 growth media was added to the cells. The dilution series is selected so that ten concentrations cover a range from 10 μM to 0.33 nM. If necessary the initial concentration of 10 μM is increased to 100 μM or lowered to 1 μM (as in the case of A375 and H1666 cells, which are generally more sensitive to the compounds) and further dilution is carried out accordingly. The final concentration of DMSO in the assay is set at 0.5%.
After treatment, media was removed and cells were lysed in 50 μL of 1× AlphaScreen Ultra Lysis Buffer (Perkin Elmer). The AlphaLISA® SureFire® Ultra™ p-ERK 1/2 (Thr202/Tyr2O4) (PerkinElmer) reactions were performed with 5 μL of cell lysate according to the manufacturer's specifications in 384-well proxyplates (Perkin Elmer) followed by overnight incubation of the reactions at room temperature in a humidified chamber. After completion of the reactions, the signals were recorded on an EnVision plate reader (Perkin Elmer) using built in AlphaLISA® settings.
The effect of each compound dilution on the pERK signal was expressed in % inhibition and calculated as follows. An internal 100% inhibition control ([…] trametinib, cat #HY-10999; MedChem Express; CAS #871700-17-3) was included in each plate and used as a measure of pERK background. First, the value obtained for trametinib was subtracted from each data point. The average of DMSO (vehicle) controls (set as 0% inhibition) was established and used to calculate % inhibition: % inhibition=100*(1-((pERK signalcompound)/(pERK signalDMSO)))
The ability of each compound to inhibit pERK signal was expressed as an IC50 value obtained by plotting the inhibition values for each data point of a dilution series and fitting the obtained curves using a log(agonist) versus response-variable slope (four parameters) function using GraphPadPrism (V7.0) or Dotmatics Screening Ultra platform.
When present, paradoxical pERK induction is inferred from the negative % inhibition values observed in the pERK IC50 curves of a compound.
(In general: Bead proximity is the source of the signal in Alpha formats.)
Consider `Cc1ccc(S(=O)(=O)Nc2ccc(F)c(Nc3ncnc4ccc(-n5cnc6ccccc65)nc34)c2F)c(C)c1F`, for which the “HCT116 pERK Ymin %” value is reported as −10%.

The test is the same for the next values; noted with them: read-out: HCT116 pERK IC50; HCT116 cells; class symbol.
`O=S(=O)(Nc1ccc(F)c(Nc2ncnc3ccc(-n4cnc5c(N6CC[C@H](CO)C6)cccc54)nc23)c1F)c1cccc(Cl)c1Cl`: the IC50 is below 0.5 µM.
Same read-out and setting: in the case of `O=S(=O)(Nc1ccc(F)c(Nc2ncnc3ccc(-n4cc(S(=O)(=O)N5C[C@@H](O)[C@H](F)C5)c5ccccc54)nc23)c1F)c1cccc(Cl)c1Cl` it was 1 to 10 µM; in that of `COCCN(C)S(=O)(=O)c1cn(-c2ccc3ncnc(Nc4c(F)ccc(NS(=O)(=O)c5cccc(Cl)c5Cl)c4F)c3n2)c2ccccc12`, below 0.5 µM; in that of `Nc1cccc2c1ncn2-c1ccc2ncnc(Nc3c(F)ccc(NS(=O)(=O)c4cccc(F)c4C(F)(F)F)c3F)c2n1`, below 0.5 µM.
Still for that read-out and setting: in the case of `COc1ccc(S(=O)(=O)Nc2ccc(F)c(Nc3ncnc4ccc(-n5cc(S(C)(=O)=O)c6ccccc65)nc34)c2F)cc1` it was below 0.5 µM.
Same read-out and setting: in the case of `O=S(=O)(Nc1ccc(F)c(Nc2ncnc3ccc(-n4cnc5c(N6CCC(F)(CO)CC6)cccc54)nc23)c1F)c1cccc(Cl)c1Cl` it was below 0.5 µM; in that of `Cc1c(F)cccc1S(=O)(=O)Nc1ccc(F)c(Nc2ncnc3ccc(-n4nc(C(=O)NC(C)c5ccccn5)c5ccccc54)nc23)c1F` (stereo not shown), 1 to 10 µM.
Take `COCCN(C)S(=O)(=O)c1cn(-c2ccc3ncnc(Nc4c(F)ccc(NS(=O)(=O)c5cccc(Cl)c5C)c4F)c3n2)c2ccccc12`: the half-inhibitory concentration (IC50) is below 0.5 µM.
On the same count and under the same terms, in the case of `CNC(=O)c1nn(-c2ccc3ncnc(Nc4c(F)ccc(NS(=O)(=O)c5cccc(F)c5C)c4F)c3n2)c2ccccc12` it was below 0.5 µM.
Still for that read-out and setting: to `Cc1c(F)cccc1S(=O)(=O)Nc1ccc(F)c(Nc2ncnc3ccc(-n4cnc5c(C(N)=O)cccc54)nc23)c1F` belongs below 0.5 µM; to `COc1nccc2c1ncn2-c1ccc2ncnc(Nc3c(F)ccc(NS(=O)(=O)c4cccc(Cl)c4Cl)c3F)c2n1`, 0.5 to 1 µM; to `O=S(=O)(Nc1ccc(F)c(Nc2ncnc3ccc(-n4cnc5c(N6CCCCC6)cccc54)nc23)c1F)c1cccc(Cl)c1Cl`, below 0.5 µM.
With `Cc1c(F)cccc1S(=O)(=O)Nc1ccc(F)c(Nc2ncnc3ccc(-n4nc(C(=O)N5C[C@@H]6CC5CN6)c5ccccc54)nc23)c1F`, the IC50 lay in the range of 0.5 to 1 µM.
In the case of `CN(C)CCNS(=O)(=O)c1cn(-c2ccc3ncnc(Nc4c(F)ccc(NS(=O)(=O)c5cccc(Cl)c5Cl)c4F)c3n2)c2ccccc12`, the 50% inhibitory concentration (IC50) was below 0.5 µM.
On to `CCN(CCOC)S(=O)(=O)c1cn(-c2ccc3ncnc(Nc4c(F)ccc(NS(=O)(=O)c5cccc(Cl)c5Cl)c4F)c3n2)c2ccccc12`, for which the IC50 was below 0.5 µM.
In the case of `Cc1c(F)cccc1S(=O)(=O)Nc1ccc(F)c(Nc2ncnc3ccc(-n4nc(C(=O)N(C)Cc5cnccn5)c5ccccc54)nc23)c1F`, the IC50 is below 0.5 µM.
On the same count and under the same terms, to `Cc1nc(-c2ccc3ncnc(Nc4c(F)ccc(NS(=O)(=O)c5cccc(Cl)c5Cl)c4F)c3n2)cs1` belongs 1 to 10 µM.
In the case of `CC(C)S(=O)(=O)c1cn(-c2ccc3ncnc(Nc4c(F)ccc(NS(=O)(=O)c5cccc(Cl)c5Cl)c4F)c3n2)c2ccccc12`, the IC50 is below 0.5 µM.
Still for that read-out and setting: in the case of `CS(=O)(=O)c1cn(-c2ccc3ncnc(Nc4c(F)ccc(NS(=O)(=O)c5cccc(Cl)c5Cl)c4F)c3n2)c2cccc(N)c12` it was below 0.5 µM.
The same measure, in the same setting: in the case of `O=S(=O)(Nc1ccc(F)c(Nc2ncnc3ccc(-n4cc(S(=O)(=O)NC5COC5)c5ccccc54)nc23)c1F)c1cccc(Cl)c1Cl` it was below 0.5 µM; in that of `Nc1cccc2c1ncn2-c1ccc2ncnc(Nc3c(F)ccc(NS(=O)(=O)c4cccc5c4OC(F)(F)O5)c3F)c2n1`, 1 to 10 µM; in that of `CN1CCCN(c2cccc3c2ncn3-c2ccc3ncnc(Nc4c(F)ccc(NS(=O)(=O)c5cccc(Cl)c5Cl)c4F)c3n2)CC1`, below 0.5 µM.
Regarding `O=C(c1cn(-c2ccc3ncnc(Nc4c(F)ccc(NS(=O)(=O)c5cccc(Cl)c5Cl)c4F)c3n2)c2ccccc12)C1CC1`, the IC50 lay in the range of 1 to 10 µM.
For `O=S(=O)(Nc1ccc(F)c(Nc2ncnc3ccc(-n4cc(S(=O)(=O)N5CCC[C@H](O)C5)c5ccccc54)nc23)c1F)c1cccc(Cl)c1Cl`, the IC50 was below 0.5 µM.
The same measure, in the same setting: in the case of `O=S(=O)(Nc1ccc(F)c(Nc2ncnc3ccc(-n4cnc5c(N6CCC(O)CC6)cccc54)nc23)c1F)c1cccc(Cl)c1Cl` it was below 0.5 µM.
Still for that read-out and setting: to `COCCNS(=O)(=O)c1cn(-c2ccc3ncnc(Nc4c(F)ccc(NS(=O)(=O)c5cccc(Cl)c5Cl)c4F)c3n2)c2ccccc12` belongs below 0.5 µM; to `Cc1c(F)cccc1S(=O)(=O)Nc1ccc(F)c(Nc2ncnc3ccc(-n4cnc(CC#N)c4)nc23)c1F`, below 0.5 µM; to `CN(c1ccncc1)S(=O)(=O)c1cn(-c2ccc3ncnc(Nc4c(F)ccc(NS(=O)(=O)c5cccc(Cl)c5Cl)c4F)c3n2)c2ccccc12`, below 0.5 µM.
As to `Cc1ccccc1S(=O)(=O)Nc1ccc(F)c(Nc2ncnc3ccc(-n4cnc5c(N)cccc54)nc23)c1F`, the IC50 was below 0.5 µM.
Regarding `Cc1c(F)cccc1S(=O)(=O)Nc1ccc(F)c(Nc2ncnc3ccc(-n4cc(S(=O)(=O)N(C)CCN(C)C)c5ccccc54)nc23)c1F`, the IC50 was below 0.5 µM.
With `Cc1c(F)cccc1S(=O)(=O)Nc1ccc(F)c(Nc2ncnc3ccc(-n4cc(C(=O)N(C)CC(C)(C)O)c5ccccc54)nc23)c1F`, the IC50 is below 0.5 µM.
Take `Cc1c(F)cccc1S(=O)(=O)Nc1ccc(F)c(Nc2ncnc3ccc(-n4ncc5c4CN(C(=O)CN)CC5)nc23)c1F`: the IC50 was 1 to 10 µM.
Still for that read-out and setting: to `Nc1cccc2c1ncn2-c1ccc2ncnc(Nc3c(F)ccc(NS(=O)(=O)c4cccc(Cl)c4C(F)(F)F)c3F)c2n1` belongs below 0.5 µM; to `Cc1c(F)cccc1S(=O)(=O)Nc1ccc(F)c(Nc2ncnc3ccc(-n4nc(C(=O)N(C)Cc5ccncc5)cc4C)nc23)c1F`, below 0.5 µM; to `O=S(=O)(Nc1ccc(F)c(Nc2ncnc3ccc(-n4nccn4)nc23)c1F)c1cccc(Cl)c1Cl`, 1 to 10 µM.
On the same count and under the same terms, to `O=S(=O)(Nc1ccc(F)c(Nc2ncnc3ccc(-n4cc(S(=O)(=O)N[C@H]5C[C@H](O)C5)c5ccccc54)nc23)c1F)c1cccc(Cl)c1Cl` (relative stereo) belongs 0.5 to 1 µM; to `O=S(=O)(Nc1ccc(F)c(Nc2ncnc3ccc(-n4cnc5c(N6CCC(F)(F)CC6)cccc54)nc23)c1F)c1cccc(Cl)c1Cl`, below 0.5 µM; to `Cc1c(F)cccc1S(=O)(=O)Nc1ccc(F)c(Nc2ncnc3ccc(-n4cc(C(=O)N(C)C)c5ccccc54)nc23)c1F`, below 0.5 µM.
Same read-out and setting: in the case of `C[C@]1(CO)CCCN1S(=O)(=O)c1cn(-c2ccc3ncnc(Nc4c(F)ccc(NS(=O)(=O)c5cccc(Cl)c5Cl)c4F)c3n2)c2ccccc12` it was below 0.5 µM; in that of `O=S(=O)(Nc1ccc(F)c(Nc2ncnc3ccc(-n4cnc5c(OCCO)cccc54)nc23)c1F)c1cccc(Cl)c1Cl`, 0.5 to 1 µM.
Consider `O=C(c1cccs1)c1cn(-c2ccc3ncnc(Nc4c(F)ccc(NS(=O)(=O)c5cccc(Cl)c5Cl)c4F)c3n2)c2ccccc12`, for which the IC50 was in the range of 1 to 10 µM.
The same measure, in the same setting: to `COCCOc1cccc2c1ncn2-c1ccc2ncnc(Nc3c(F)ccc(NS(=O)(=O)c4cccc(Cl)c4Cl)c3F)c2n1` belongs below 0.5 µM.
The same measure, in the same setting: in the case of `Cc1c(F)cccc1S(=O)(=O)Nc1ccc(F)c(Nc2ncnc3ccc(-n4cc(C(=O)N(C)Cc5ccncc5)c5ccccc54)nc23)c1F` it was below 0.5 µM.

The test is the same for the next values; noted with them: read-out: HCT116 pERK IC50; HCT116 cells; class symbol; tested form: formate.
In the case of `Cc1c(F)cccc1S(=O)(=O)Nc1ccc(F)c(Nc2ncnc3ccc(-n4nc(C(=O)N5CC6CCC5CN6)c5ccccc54)nc23)c1F` (stereo not shown), the IC50 is below 0.5 µM.

Still in this test, the particulars now being: read-out: HCT116 pERK IC50 in μM; HCT116 cells, 1 h treatment.
For the molecule `Cc1ccc(S(=O)(=O)Nc2ccc(F)c(Nc3ncnc4ccc(-n5cnc6ccccc65)nc34)c2F)c(C)c1F`, the 50% inhibitory concentration (IC50) was below 0.5 µM.

Usually IC50 stands for the concentration at which inhibition is half-maximal.
